# Measured values published in US20190060384A1, “COMPOSITION FOR TREATMENT OR PREVENTION OF LUNG CANCER AND A METHOD THEREFORE” (priority 2017, published 2019).
# Settings: mouse, in vivo, po
smiles,measurement,value
"COc1cc2ncnc(Nc3ccc(F)c(Cl)c3)c2cc1OCCCN1CCOCC1 [Gefitinib, gefitinib]",CHO,142.00 ± 21.53 mg/dL
same,CPK,192.57 ± 36.57 IU/L
same,Ca,10.40 ± 0.28 mg/dL
same,Na,141.29 ± 1.11 mmol/L
same,P,10.13 ± 0.29 mg/dL
